The text below walks through data of PMC7680422 (European journal of medicinal chemistry, 2020).

This data set in a line: Phase I metabolic stability in rat liver microsomes. It counts as in vitro ADME. A general note: Liver microsomes are a subcellular fraction often used to study metabolism.

SMILES strings stand for the structures.

On to `O=C(c1ccc(F)cc1F)N1CCC(NCCSC(c2ccc(F)cc2)c2ccc(F)cc2)CC1` [Compound 33, (4-((2-((Bis(4-fluorophenyl)methyl)thio)ethyl)amino)piperidin-1-yl)(2,4-difluorophenyl)methanone], for which the “metabolic stability / susceptibility to phase I metabolism (in words)” value is “relatively metabolically stable”.
